Three molecules from ChEMBL document CHEMBL1129692, “Affinity for dopamine D2, D3, and D4 receptors of 2-aminotetralins. Relevance of D2 agonist binding for determination of receptor subtype selectivity” (J Med Chem, 1996) can be followed below.

Amino acid sequences for entries named in this document (tags omitted).
UniProt P14416, whole entry: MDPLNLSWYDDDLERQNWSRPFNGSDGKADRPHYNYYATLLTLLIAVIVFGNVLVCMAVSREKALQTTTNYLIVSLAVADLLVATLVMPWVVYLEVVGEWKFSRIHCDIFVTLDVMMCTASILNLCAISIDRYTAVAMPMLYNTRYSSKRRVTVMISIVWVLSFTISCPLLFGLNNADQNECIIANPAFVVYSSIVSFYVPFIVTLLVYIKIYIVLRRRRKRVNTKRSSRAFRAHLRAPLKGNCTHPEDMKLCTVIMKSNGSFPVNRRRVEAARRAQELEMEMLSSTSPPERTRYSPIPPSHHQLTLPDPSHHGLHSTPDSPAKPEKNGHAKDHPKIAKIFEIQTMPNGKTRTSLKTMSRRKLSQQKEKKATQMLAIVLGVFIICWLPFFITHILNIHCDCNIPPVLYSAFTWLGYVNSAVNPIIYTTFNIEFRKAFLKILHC
UniProt P35462, whole entry: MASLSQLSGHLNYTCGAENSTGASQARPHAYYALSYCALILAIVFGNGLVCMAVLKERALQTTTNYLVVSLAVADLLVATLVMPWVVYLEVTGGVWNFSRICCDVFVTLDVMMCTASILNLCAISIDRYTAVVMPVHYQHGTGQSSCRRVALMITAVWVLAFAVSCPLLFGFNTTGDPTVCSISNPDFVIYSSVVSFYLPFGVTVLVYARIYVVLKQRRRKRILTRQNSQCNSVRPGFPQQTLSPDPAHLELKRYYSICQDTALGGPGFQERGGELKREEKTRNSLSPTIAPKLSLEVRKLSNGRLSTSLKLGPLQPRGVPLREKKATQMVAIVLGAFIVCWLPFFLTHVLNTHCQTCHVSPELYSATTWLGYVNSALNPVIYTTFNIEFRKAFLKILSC

pKi: −log10 of the molar value.

Experiment in all cases: biochemical
Assay [1] has as its target T1, D(2) dopamine receptor (Homo sapiens, UniProt P14416).
The next assay deals with D(3) dopamine receptor (Homo sapiens, UniProt P35462).
The target in assay [2] is T1, D(2) dopamine receptor. This is another data set of the same source.

The term pKi denotes the Ki on a negative log10 scale, so that one unit is a factor of ten. Consider `CCCN(CCC)[C@@H]1CCc2c(O)cccc2C1`, for which the results for the pKi at D(2) dopamine receptor [1] and on D(3) dopamine receptor were 7.05 and 7.12, respectively.
For `CCCNC1CCc2c(O)cccc2C1` (stereo not drawn), the pKi on D(2) dopamine receptor [2] is 9.30; on D(2) dopamine receptor [1] it was 6.55; at D(3) dopamine receptor, 9.12.
On to `CCCN(CCC)C1CCc2c(O)cccc2C1` (single isomer, unassigned), for which the values for the pKi on D(2) dopamine receptor [2], at D(2) dopamine receptor [1] and at D(3) dopamine receptor were 7.85, 8.22 and 9.27, respectively.
